How the values were obtained:
Hedgehog signaling = settings: 50 mg/kg/d i.p., 8 weeks
Hedgehog pathway = settings: murine models; cited from earlier work

In the case of `CC1=C2C[C@H]3[C@@H](CC=C4C[C@@H](O)CC[C@@]43C)[C@@H]2CC[C@]12O[C@@H]1C[C@H](C)CN[C@H]1[C@H]2C` [Cyclopamine], the “in vivo NE tumor growth” value (Hedgehog signaling) is listed as “growth inhibition and possible regression” and the “adverse side effects to the mice” value (Hedgehog pathway) is listed as “no adverse side effects”.

From patent US8338482B2, “Modulating notch1 signaling pathway for treating neuroendocrine tumors” (Wisconsin Alumni Research Foundation, priority 2007, dated 2012)
